Measured values taken from ChEMBL document CHEMBL1914421, “Aminomethyltetrazoles as potential inhibitors of the γ-aminobutyric acid transporters mGAT1-mGAT4: synthesis and biological evaluation” (Bioorg Med Chem, 2011).

System: betaine/GABA transporter BGT-1 (Slc6a12, Mus musculus)
Test: Residual mouse GAT2-mediated [3H]GABA uptake expressed in human HEK cells at 100 uM
Details: HEK293

residual activity [%]	SMILES
74.8	c1ccc(C(CCNCc2nnnn2C2CCCCC2)c2ccccc2)cc1
76.3	c1ccc(C(NCc2nnnn2C2CCCCC2)c2ccccc2)cc1
